Source: PubChem BioAssay AID434977 (Johns Hopkins Ion Channel Center, 2010)
This is a selection; strong and weak results do not stand in their true shares. Active and inactive are the calls of the source.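 The calls were made as follows: active = calcium signal rise above buffer-control mean plus 5 SD in both duplicates, and also a hit in the primary screen; inactive = the rest.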

These compounds were tested against Short transient receptor potential channel 4 (Mus musculus) (UniProt Q9QUQ5) (assay: calcium flux activators in TRPC4/5HT1a cells, counter-screen for TRPC4 activator project, cell-based, second counter screen, HEK293 TRPC4/5HT1a, Fluo-4 (AID 434977)). Details: Fluo-4 calcium flux, at 10 µM.

Q: With CCN(CC)CCCOC(=O)C(O)(c1ccccc1)c1ccccc1 as the compound, how does the outcome read?
A: inactive

Q: For CN(C)CCOC(=O)C(O)(c1ccccc1)C1CCCC1 (configuration not stated), which outcome is on record?
A: inactive
